PMC9230784, “Development of a Novel Class of Pyridazinone Derivatives as Selective MAO-B Inhibitors” (Molecules, 2022)

Details: PAMPA-BBB

NCCc1ccc(O)c(O)c1 [Dopamine, reference compound]
Experimental Pe (×10^−6 cm/s): 0.21 ± 0.01 ×10^−6 cm/s
